Measurements from BindingDB's records for doi:10.1016/0006-8993(87)90040-0 (St, Marianna University School of Medicine, 1987).
Structures can show the parent of a compound that is named as a salt.

Amino acid sequences for entries named in this document (tags omitted).
UniProt P61169, whole entry: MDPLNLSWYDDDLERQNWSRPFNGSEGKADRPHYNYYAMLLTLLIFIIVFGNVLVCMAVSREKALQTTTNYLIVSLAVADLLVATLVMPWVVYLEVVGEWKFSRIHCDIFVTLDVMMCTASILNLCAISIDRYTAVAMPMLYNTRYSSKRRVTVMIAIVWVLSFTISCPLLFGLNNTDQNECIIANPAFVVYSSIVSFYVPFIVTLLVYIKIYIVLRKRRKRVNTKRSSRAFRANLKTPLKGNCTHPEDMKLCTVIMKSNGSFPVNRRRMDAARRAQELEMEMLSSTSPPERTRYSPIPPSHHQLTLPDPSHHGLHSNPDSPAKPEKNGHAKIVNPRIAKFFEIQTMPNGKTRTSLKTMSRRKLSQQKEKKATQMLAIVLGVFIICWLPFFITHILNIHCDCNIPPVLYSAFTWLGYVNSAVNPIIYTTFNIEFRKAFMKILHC

target: D(2) dopamine receptor (Rattus norvegicus, UniProt P61169)

Ki | SMILES
0.027 µM | CN1CCc2cccc3c2[C@H]1Cc1ccc(O)c(O)c1-3 [APOKYN]
0.019 µM | CCN(CC)CCNC(=O)c1cc(Cl)c(N)cc1OC [4-amino-5-chloro-N-[2-(diethylamino)ethyl]-2-methoxy-benzamide;hydrochloride]
0.879 µM | CN1CCN2c3ccccc3Cc3ccccc3[C@H]2C1 [MIANSERIN (+)]
